Measurements taken from patent publication US20240390376A1, “METHOD FOR PREVENTING ADVERSE PREGNANCY OUTCOMES DUE TO USE OF SELECTIVE SEROTONIN REUPTAKE INHIBITORS (SSRI) DURING GESTATION” (Wisconsin Alumni Research Foundation, priority 2023, published 2024).

Tested on: SERT-null mice (Sert-/-)
Assay: Effects of fluoxetine in serotonin transporter null mice (FIGS. 3A-3C)
Settings: mutant mouse with genetic ablation of SERT

## CNCCC(Oc1ccc(C(F)(F)F)cc1)c1ccccc1 (stereo not shown) [fluoxetine]
  effect of fluoxetine treatment on pregnancy outcomes: not affected
